# Laboratory results from publication PMC5999399 (Journal of medicinal chemistry, 2017).
# Protein sequences, listed by entry. Tags and fused reporters are not part of them. Lines headed by an entry give the natural chain unless they say otherwise; changes in a name come on top.
# UniProt Q01726: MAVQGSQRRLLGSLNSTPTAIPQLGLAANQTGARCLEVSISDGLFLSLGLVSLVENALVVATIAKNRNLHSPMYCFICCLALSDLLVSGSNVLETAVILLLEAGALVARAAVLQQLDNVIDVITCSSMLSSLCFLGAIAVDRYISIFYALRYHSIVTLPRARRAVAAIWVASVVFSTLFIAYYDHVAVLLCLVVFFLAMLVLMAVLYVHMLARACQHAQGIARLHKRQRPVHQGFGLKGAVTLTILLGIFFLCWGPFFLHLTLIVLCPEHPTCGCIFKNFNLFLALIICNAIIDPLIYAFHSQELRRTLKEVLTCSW
# UniProt P32245, whole entry: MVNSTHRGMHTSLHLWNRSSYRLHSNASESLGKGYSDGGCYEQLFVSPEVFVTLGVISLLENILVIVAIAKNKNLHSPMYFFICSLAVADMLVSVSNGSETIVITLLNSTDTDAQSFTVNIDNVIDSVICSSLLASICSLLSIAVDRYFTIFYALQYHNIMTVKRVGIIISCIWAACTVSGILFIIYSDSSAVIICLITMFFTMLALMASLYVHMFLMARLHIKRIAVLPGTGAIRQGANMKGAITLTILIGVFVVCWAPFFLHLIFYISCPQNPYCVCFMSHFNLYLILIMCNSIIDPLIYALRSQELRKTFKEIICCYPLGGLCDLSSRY
# Columns and labels:
# human MC1R (hMC1R) [1] = target: T1, human MC1R (hMC1R) (Homo sapiens, UniProt Q01726); assay: Competitive binding assay with [125I]NDP-α-MSH, hMC1R; conditions: ratio of IC50 hMC5R / hMC1R
# human MC1R (hMC1R) [2] = target: T1, human MC1R (hMC1R); conditions: [125I]NDP-α-MSH displacement at 10 μM; ref previously published data; cited from earlier work
# human MC1R (hMC1R) [3] = target: T1, human MC1R (hMC1R); conditions: cAMP at 10 μM, in relation to MT-II; ref previously published data; cited from earlier work
# human MC4R (hMC4R) [4] = target: T2, human MC4R (hMC4R) (Homo sapiens, UniProt P32245); conditions: [125I]NDP-α-MSH displacement at 10 μM; ref previously published data; cited from earlier work
# human MC4R (hMC4R) [5] = target: T2, human MC4R (hMC4R); conditions: cAMP at 10 μM, in relation to MT-II; ref previously published data; cited from earlier work
substance,measurement,setting,value
H-Tyr-Val-Nle-Gly-His-D-Nal(2)-Arg-D-Trp-Asp-Arg-Phe-Gly-NH2 [Compound 1],binding affinity to hMC1R stronger than hMC5R,human MC1R (hMC1R) [1],12 fold
same,hMC1R % BE,human MC1R (hMC1R) [2],100%
same,hMC1R % max effect,human MC1R (hMC1R) [3],70%
same,hMC4R % BE,human MC4R (hMC4R) [4],100%
same,hMC4R % max effect,human MC4R (hMC4R) [5],18%
